{"sequences": {"note": "By UniProt entry, the sequences of proteins in these tests, tags left out. Where a name states a change or a piece, a line headed by the entry shows the natural chain unless it says otherwise.", "UniProt P28074": "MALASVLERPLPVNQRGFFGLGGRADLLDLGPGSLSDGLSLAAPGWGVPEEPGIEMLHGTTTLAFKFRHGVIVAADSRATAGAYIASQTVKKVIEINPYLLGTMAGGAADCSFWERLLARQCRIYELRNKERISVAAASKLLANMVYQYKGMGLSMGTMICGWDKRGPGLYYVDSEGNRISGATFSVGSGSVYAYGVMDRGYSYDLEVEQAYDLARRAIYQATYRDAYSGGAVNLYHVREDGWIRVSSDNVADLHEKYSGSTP"}, "source": "ChEMBL document CHEMBL4477237", "about": "“Structure-Based Design of β5c Selective Inhibitors of Human Constitutive Proteasomes” (J Med Chem, 2016)", "key": {"[1]": {"target": "Proteasome Macropain subunit MB1 (Homo sapiens, UniProt P28074)", "assay": "Inhibition of catalytic activity of constitutive proteasome 20s subunit beta5 in human Raji cells incubated for 1 hr by BODIPY(TMR)-NC-005-VS probe based competitive activity based protein profiling assay", "type": "cell-based"}, "[2]": {"target": "Proteasome subunit beta type-8 (β5i, LMP7) (Homo sapiens) (UniProt P28062)", "assay": "Inhibition of catalytic activity of immunoproteasome 20s subunit beta5 in human Raji cells incubated for 1 hr by BODIPY(TMR)-NC-005-VS probe based competitive activity based protein profiling assay"}}, "data": [{"compound": "CC(C)C[C@H](NC(=O)[C@H](Cc1ccccc1)NC(=O)[C@H](Cc1ccccc1)NC(=O)[C@H](Cc1ccccc1)N=[N+]=[N-])C(=O)[C@@]1(C)CO1", "values": [{"measurement": "IC50", "setting": "[1]", "result": 2.1, "unit": "nM"}, {"measurement": "pIC50(app)", "setting": "[1]", "result": 8.67}, {"measurement": "pIC50(app)", "setting": "[2]", "result": 8.26}]}]}
